PubChem AID 2061109: pyroptosis screen in mouse bone marrow macrophages, one dose (5 µM).
Target pathway: NLRP3 inflammasome, triggered by LPS and nigericin. Dead cells counted by propidium iodide.
Higher is more protection: 100% equals untreated cells, 0% the stimulated control, negative values set to 0. Active call (*): above 70%. Part of the library is listed.

compound | inhibition (%)
CCOc1ccc2nccc([C@@H](O)[C@@H]3C[C@@H]4CCN3C[C@@H]4CC)c2c1.Cl | 0.0
COc1cc2nnc(C(N)=O)c(Nc3ccc(C)cc3F)c2cc1N1CCN(CCO)CC1 | 11.9
COc1ccc2c(c1)NC(=O)CN2c1nc(C)nc2c1CCC2 | 0.0
C[n+]1c2cc(N)ccc2cc2ccc(N)cc21.[Cl-] | 13.9
Fc1ccc2c(/C=C/c3nn[nH]n3)c[nH]c2c1 | 64.2
COc1cc2ncnc(N(C)c3cccc(Br)c3)c2cc1OC | 42.9
Oc1ccc(-c2c(-c3ccccc3)nn3c(C(F)(F)F)cc(C(F)(F)F)nc23)cc1 | 77.3*
CN1CCN2c3c(cccc31)[C@@H]1CN(CCCC(=O)c3ccc(F)cc3)CC[C@@H]12.Cc1ccc(S(=O)(=O)O)cc1 | 69.3
Cl.O=C1CC[C@@]2(O)[C@H]3Cc4ccc(O)c5c4[C@@]2(CCN3CC2CC2)[C@H]1O5 | 23.3
CC(C)(C)[C@@H]1NC(=O)O[C@@H]2CCC[C@H]2OCC=CC(F)(F)c2nc3ccccc3nc2O[C@@H]2C[C@@H](C(=O)N[C@]3(C(=O)NS(=O)(=O)C4(C)CC4)C[C@H]3C(F)F)N(C2)C1=O | 80.3*
Cc1cc(C(=O)NNCc2ccccc2)no1 | 83.6*
C[C@H]1OC[C@]2(c3cc(NC(=O)c4cnc(C(F)F)cn4)ccc3F)N=C(N)SC[C@H]12 | 73.9*
COc1cc2ncnc(Nc3ccc(F)c(Cl)c3)c2cc1NC(=O)/C=C/CN1CCCCC1.O | 39.8
CCCCCCCCCC(=O)OCC(O)CO | 43.0
CC[C@@]1(O)C(=O)OCc2c1cc1n(c2=O)Cc2c-1nc1ccccc1c2/C=N/OC(C)(C)C | 23.6
O=c1c2ccccc2nc(/C=C/c2cccnc2)n1Cc1ccccc1 | 75.0*
CCC(=O)O[C@]1(C(=O)CO)CC[C@H]2[C@@H]3CCC4=CC(=O)CC[C@]4(C)[C@H]3CC[C@@]21C | 0.0
CC(C)c1ncc(Cc2ccccc2)[nH]c1=O | 5.1
COc1cc2c(Nc3cc(Cl)c(OC)c(Cl)c3)c(C#N)cnc2cc1OCCCN1CCN(C)CC1 | 0.0
Cc1nn(CC(F)(F)F)cc1Nc1ncc(Br)c(NCc2ccc(S(N)(=O)=O)cc2)n1 | 0.0
CC(C)(CC(=O)N1CCCC1)NCC(=O)N1C[C@@H](F)C[C@H]1C#N | 33.9
C=CC(=O)N1CCN(c2nc(=O)n(-c3c(C)ccnc3C(C)C)c3nc(-c4c(O)cccc4F)c(F)cc23)[C@@H](C)C1 | 3.7, 0.0
Cc1c[nH]c2nccc(Oc3c(F)cc(Nc4cc(Cl)nc(N)n4)cc3F)c12 | 50.5
COc1cc(O)cc(O)c1C(=O)/C=C/c1ccc(O)cc1 | 59.9
CC(C)N1CCC(NC(=O)c2c(Cl)cccc2Cl)CC1 | 0.0
O=c1cc(-c2ccc(O)c(O)c2)oc2cc(O[C@@H]3O[C@H](CO)[C@@H](O)[C@H](O)[C@H]3O)cc(O)c12 | 5.4
Cl.Cl.c1cc(-c2nc3ccc(OCCCN4CCCC4)cc3o2)ccc1OCCCN1CCCC1 | 0.0
C[C@]12N[C@H](Cc3ccccc31)c1ccccc12.O=C(O)/C=C\C(=O)O | 37.9
Cn1c(=O)c2c(ncn2CC(O)CN2CCN(CCCSc3ccccc3)CC2)n(C)c1=O | 48.9
Fc1ccc(Cl)cc1-c1nc(Nc2ccncc2)c2nccnc2n1 | 0.0
O=C1N[C@](c2ccc(N3CCOCC3)cc2)(c2cccs2)CC(O)=C1Sc1ccccc1Cl | 71.7*
CC(C)[C@@H]1NC(=O)[C@H](C)OC(=O)[C@@H](C(C)C)NC(=O)[C@@H](C(C)C)OC(=O)[C@H](C(C)C)NC(=O)[C@H](C)OC(=O)[C@@H](C(C)C)NC(=O)[C@@H](C(C)C)OC(=O)[C@H](C(C)C)NC(=O)[C@H](C)OC(=O)[C@@H](C(C)C)NC(=O)[C@@H](C(C)C)OC1=O | 0.0
COC[C@H]1Cn2cc(-c3nc(Nc4ccnn4C)ncc3C)nc2C(=O)N1Cc1ccc(F)c(F)c1 | 0.0
CCOc1nc2ccccc2n1Cc1ccc(NC(=O)N2CC(c3cccnc3)C2)cc1 | 8.4
Br.CN(C)CCCC1(c2ccc(F)cc2)OCc2cc(C#N)ccc21 | 6.7
Cc1cc(C)n(CCCCCSc2nc(-c3ccccc3)c(-c3ccccc3)[nH]2)n1 | 0.0
Cc1cn([C@H]2O[C@@H](CO)[C@H](O)[C@H]2F)c(=O)[nH]c1=O | 0.0
COc1cc(-c2coc3cc4c(c(OC)c3c2=O)OCO4)cc(OC)c1OC | 56.2
CN(CCOc1ccc(CC2SC(=O)NC2=O)cc1)c1ccccn1.O=C(O)/C=C\C(=O)O | 0.0
CCN(CC)C(=O)C(c1ccccc1)N1CCN(c2ccc(NC(=O)c3ccccc3-c3cccnc3)cc2F)CC1 | 52.5
Cl.O=C1c2cccc3c2[C@H](CCC3)CN1[C@@H]1CN2CCC1CC2 | 0.0
Cc1ccc(Sc2ccccc2N2CCNCC2)c(C)c1 | 0.5
OC(CNCCc1c[nH]c2ccccc12)Cn1c2ccccc2c2ccccc21 | 0.0
C[C@@H](Oc1cc(C(=O)Nc2ccc(C(=O)N3CCN(C)CC3)cc2)nnc1N)c1c(Cl)ccc(F)c1Cl | 0.0
CC(=O)OC[C@@H](COC(=O)/C=C/c1ccc(O)cc1)O[C@@H]1O[C@H](CO)[C@@H](O)[C@H](O)[C@H]1O | 0.0
COc1cccc(Cn2c(=O)oc3cc(-c4cnc5[nH]ccc5c4)ccc32)c1 | 80.2*
CC(C)=CCC[C@]1(C)C=Cc2c(O)c3c(c(CC=C(C)C)c2O1)O[C@]12C(=C[C@@H]4C[C@H]1C(C)(C)O[C@@]2(C/C=C(/C)C(=O)O)C4=O)C3=O | 39.6
OC[C@H]1O[C@@H](S[C@@H]2O[C@H](CO)[C@H](O)[C@H](O)[C@H]2O)[C@H](O)[C@@H](O)[C@H]1O | 0.0
CO[C@H]1C[C@@H]2CC[C@@H](C)[C@@](O)(O2)C(=O)C(=O)N2CCCC[C@H]2C(=O)O[C@H]([C@H](C)C[C@@H]2CC[C@H](n3cnnn3)[C@H](OC)C2)CC(=O)[C@H](C)/C=C(\C)[C@@H](O)[C@@H](OC)C(=O)[C@H](C)C[C@H](C)/C=C/C=C/C=C/1C | 57.1
O=c1[nH]cnc2[nH]ncc12.[Na+] | 44.5
O=C(Nc1ccccc1)N1CCC(Cc2cnc3ccccc3c2)CC1 | 0.0
CN1CCN(c2ccc(Nc3ncc4c(n3)SC(=Cc3ccc([N+](=O)[O-])cc3)C(=O)N4)cc2)CC1 | 72.4*
c1ccc(Cn2c(Sc3ncnc4c3sc3ncccc34)nnc2-c2ccncc2)cc1 | 79.5*
C[C@@H]1COC(Nc2ccc3ncnc(Nc4ccc(OCc5nccs5)c(Cl)c4)c3c2)=N1 | 68.7
COc1cc([C@@H]2c3cc4c(cc3[C@H](O)[C@H]3COC(=O)[C@@H]23)OCO4)cc(OC)c1OC | 62.6
Cc1ccccc1C(C(=O)NC1CCCCC1)N(C(=O)Cn1cnc2ccccc21)c1cccc(F)c1 | 0.0
Cc1nc2ccc(C(=O)N3CCC4(CC3)CC(=O)c3c(cnn3C(C)C)C4)cc2[nH]1 | 0.0
CCn1c(=O)c(-c2ccc(Cl)cc2Cl)cc2cnc(Nc3ccc(N4CCNCC4)c(F)c3)nc21 | 83.3*
Cc1nc(Nc2ncc(C(=O)Nc3c(C)cccc3Cl)s2)cc(N2CCN(CCO)CC2)n1.O | 9.3
CC1=C2C[C@H]3[C@@H](CC=C4C[C@@H](O)CC[C@@]43C)[C@@H]2CC[C@]12O[C@@H]1C[C@H](C)CN[C@H]1[C@H]2C | 0.0
CCn1c(=O)c2c(nc(/C=C/c3ccc(OC)c(OC)c3)n2C)n(CC)c1=O | 38.6
COc1cc(C(=O)c2ccc(-c3csc(NC(=O)[C@@H](N)C(C)C)n3)cc2-n2cncn2)cc(OC)c1OC.Cl | 8.2
O=C(O)c1ccc(CCCc2c(CCNS(=O)(=O)Cc3ccccc3C(F)(F)F)n(C(c3ccccc3)c3ccccc3)c3ccc(Cl)cc23)cc1 | 0.0
CC(C)CNc1ccnc(NCc2csc(-c3ccccc3)n2)n1 | 46.9
C[C@@H]1COCCN1c1cc(-c2ccnn2C)c2ccnc(-c3ccn[nH]3)c2n1.Cl | 24.6
NNc1nc2ccccc2s1 | 0.0
CCO[C@@H]1OC(=O)C[C@@H]1NC(=O)[C@@H]1CCCN1C(=O)[C@@H](NC(=O)c1ccc(N)c(Cl)c1)C(C)(C)C | 100.0*
CC(C)(C)Sc1c(CC(C)(C)C(=O)O)n(Cc2ccc(Cl)cc2)c2ccc(OCc3ccc4ccccc4n3)cc12 | 25.2
C[C@@H](Nc1cc(F)cc(F)c1)c1cc(C(=O)N(C)C)cc2c(=O)cc(N3CCOCC3)oc12 | 0.0
Cl.O=C(O)/C=C/c1ccc(Cn2ccnc2)cc1 | 2.5
Cl.O=C(c1ccc(-c2ccc(Cl)cc2)o1)N(Cc1ccccn1)c1ccc(N2CCNCC2)cc1 | 75.3*